The assay deals with Serotonin 5-HT7 receptors (Homo sapiens, UniProt P34969). As to the kind of experiment: radioligand binding, [3H]LSD, receptors expressed in CHO-K1 cells.

Protein sequences, listed by entry. Tags and fused reporters are not part of them.
UniProt P34969, whole entry: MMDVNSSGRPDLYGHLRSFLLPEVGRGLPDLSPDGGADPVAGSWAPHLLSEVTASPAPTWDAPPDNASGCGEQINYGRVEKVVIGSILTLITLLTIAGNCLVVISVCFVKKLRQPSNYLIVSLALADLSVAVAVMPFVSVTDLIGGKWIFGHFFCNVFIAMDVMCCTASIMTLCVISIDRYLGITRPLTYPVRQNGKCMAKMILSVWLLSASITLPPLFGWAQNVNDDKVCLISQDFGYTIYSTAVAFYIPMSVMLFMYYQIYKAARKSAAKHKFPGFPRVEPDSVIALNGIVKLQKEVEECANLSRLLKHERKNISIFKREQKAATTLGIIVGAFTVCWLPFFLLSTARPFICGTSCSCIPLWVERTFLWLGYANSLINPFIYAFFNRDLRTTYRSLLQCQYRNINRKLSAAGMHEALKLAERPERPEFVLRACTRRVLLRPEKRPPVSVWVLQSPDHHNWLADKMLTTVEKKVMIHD

Take `CCN1CCCC1CNC(=O)c1cc(S(=O)(=O)CC)c(N)cc1OC` (racemic) [Racemic (50:50)]: where the note is “Table 19, ratio of Ki values”, the 5-HT7/D2 was found to be 13.

In the case of `CCN1CCC[C@@H]1CNC(=O)c1cc(S(=O)(=O)CC)c(N)cc1OC` [(R)-amisulpride, R-4-Amino-N-[(1-ethyl-2-pyrrolidinyl)methyl]-5-(ethylsulfonyl)-2-methoxybenzamide], the “5-HT7 antagonism relative to that of the (S)-amisulpride” value (FIG. 5B) is on record as “about 300 fold”.

Source of the values: patent publication US11160758B2, “Modified release formulations and uses thereof” (Sunovion Pharmaceuticals Inc., priority 2019, dated 2021).
